Molecular target: human mGlu2 (Homo sapiens, UniProt Q14416)
Experiment: mGlu GIRK cell-based thallium flux assay, human mGlu2
Settings: read-out: Human mGlu2 GIRK IC50, HEK-293 cells co-expressing human mGlu2 and GIRK, EC80 glutamate

The chains behind the UniProt entries cited, without tags or fusion partners. Residues count along the entry.
UniProt Q14416, 19-872 limits assumed: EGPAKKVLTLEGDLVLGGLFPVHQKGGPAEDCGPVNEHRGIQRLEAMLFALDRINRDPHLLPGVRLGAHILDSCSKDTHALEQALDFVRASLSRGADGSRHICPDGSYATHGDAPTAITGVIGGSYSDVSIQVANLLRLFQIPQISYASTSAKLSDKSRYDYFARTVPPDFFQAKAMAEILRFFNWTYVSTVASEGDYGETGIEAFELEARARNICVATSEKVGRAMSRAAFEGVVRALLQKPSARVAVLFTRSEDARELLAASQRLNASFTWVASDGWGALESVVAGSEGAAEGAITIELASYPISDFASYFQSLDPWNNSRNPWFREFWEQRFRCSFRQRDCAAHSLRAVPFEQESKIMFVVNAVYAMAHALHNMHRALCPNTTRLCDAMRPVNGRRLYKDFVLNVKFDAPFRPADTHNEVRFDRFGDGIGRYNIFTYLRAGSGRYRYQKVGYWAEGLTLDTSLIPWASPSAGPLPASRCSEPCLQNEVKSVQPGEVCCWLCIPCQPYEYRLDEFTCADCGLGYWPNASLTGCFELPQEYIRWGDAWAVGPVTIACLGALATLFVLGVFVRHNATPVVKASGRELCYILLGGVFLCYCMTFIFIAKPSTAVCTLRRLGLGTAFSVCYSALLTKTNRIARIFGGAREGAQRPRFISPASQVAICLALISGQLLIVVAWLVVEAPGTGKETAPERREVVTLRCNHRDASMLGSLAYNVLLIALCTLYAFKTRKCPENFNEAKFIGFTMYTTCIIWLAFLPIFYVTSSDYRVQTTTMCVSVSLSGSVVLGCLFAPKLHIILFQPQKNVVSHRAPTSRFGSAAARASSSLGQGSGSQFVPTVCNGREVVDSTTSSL

SMILES	IC50
O=C1NCc2cc(CN3CCSCC3)c(-c3ccc(F)cc3F)cc21	> 10 µM
O=C1NCc2cc(CN3CCOCC3)c(-c3ccc(F)cc3F)cc21	> 10 µM

Reference: patent US20260098030A1, “NEGATIVE ALLOSTERIC MODULATORS OF METABOTROPIC GLUTAMATE RECEPTOR 2” (Vanderbilt University, priority 2022, published 2026)
